From patent US6602856B1, “Antagonists of alpha-melanocyte stimulating hormone and methods based thereon” (priority 1995, dated 2003)
Like-named read-outs stand apart in the source and are kept apart here.

Assays:
[1] = molecular target: T1, endogenous amphibian MSH-receptors (Xenopus laevis, UniProt A0A1L8GF34); assay type: cell-based
T1 sequence (A0A1L8GF34 1-317): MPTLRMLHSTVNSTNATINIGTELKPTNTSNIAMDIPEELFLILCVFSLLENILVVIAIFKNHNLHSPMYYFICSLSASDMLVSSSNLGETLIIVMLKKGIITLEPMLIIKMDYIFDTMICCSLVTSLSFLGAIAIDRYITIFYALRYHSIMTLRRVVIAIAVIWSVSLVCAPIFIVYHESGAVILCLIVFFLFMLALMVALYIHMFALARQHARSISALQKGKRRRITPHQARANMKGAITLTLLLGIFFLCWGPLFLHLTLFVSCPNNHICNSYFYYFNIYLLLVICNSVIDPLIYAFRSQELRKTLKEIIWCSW
Method: Melanin dispersion responses were quantitated by measuring transmittance through a monolayer of cultured melanophores pretreated with 1 nM melatonin (Potenza, et. al., 1992, Anal Biochem. 206, 315-22) and curve fit with a logistic equation (De Lean et al., 1978, Am J. Physiol. 235, E97-E102).
Broken lines indicate 99% confidence level.
Each point represents the mean and SSD of four independent transmittance measurements. Ti=initial transmittance (2 min.). Tf=final transmittance (60 min.).
For dose-response studies all tripeptides were synthesized on Rink Amide MBHA resin 0.25 mmol scale using standard Fmoc chemistry. After synthesis, peptides were purified suing HPLC and reverse-phase chromatography on a C18 column. The dose-response curves were obtained by microtiter plate assays (Potenza et al, 1992, Pigment Cell Res. 5, 372-378). Melanophore cells (18,000/well) were plated on 96-well tissue culture plates (Falcon).

[2] = tested on: Xenopus laevis skin pigmentation; conditions: 1 mM in H2O applied to skin surface
[3] = tested on: Xenopus laevis skin pigmentation; conditions: 40 μmol/kg injected; for skin pigmentation lightening, systemic injection: dark-adapted frogs

- slope of the Schild regression [1]: 1.6±0.03
Compound: CC(C)C[C@H](NC(=O)[C@H](CCCNC(=N)N)NC(=O)[C@H](N)Cc1c[nH]c2ccccc12)C(N)=O [A1, D-Trp-Arg-Leu-NH2]
- skin pigmentation lightening, topical ([2]; listed as DWRL): local lightening of pigmentation to “albino like” levels
- skin pigmentation lightening, topical ([2]; listed as dWRL): lightened albino-like skin tone
- time to lightening after injection [3]: ≤ 20 min
- skin pigmentation lightening, systemic injection ([3]; listed as DWRL): lightening of skin pigmentation on the entire body surface
- skin pigmentation lightening, systemic injection ([3]; listed as dWRL): complete lightening
